In general, pIC50 refers to the negative decadic logarithm of the IC50, by convention in mol/L. A higher pIC50 goes with a small IC50.

pIC50: −log10 of the molar value.

What all share (assay type): functional, cell-based
A short description of test [1]: Cytotoxicity against human CWR22 cells.
Test [2] concerns HL-60. As to the kind of experiment: Cytotoxicity against human vincristine-resistant HL60 cells.
Test [3] can be described thus: Cytotoxicity against human Meso47 cells.

With `COc1ccc(C(=O)c2coc3c2C(=O)C(=O)C(Cl)=C3)cc1`, the pIC50 in test [1] is 4.16.

As to `COc1ccc(C(=O)c2coc3c2C(=O)C(=O)C(Br)=C3)cc1`, the pIC50 is 4.15 in test [1], 4.17 in test [2] and 4.15 in test [3].

`COc1cc(C(=O)c2coc3c2C(=O)C(=O)C(Cl)=C3Cl)cc(OC)c1OC` had a pIC50 in test [1] of 4.17.

Values taken from ChEMBL document CHEMBL1806384, “Identification of benzofuran-4,5-diones as novel and selective non-hydroxamic acid, non-peptidomimetic based inhibitors of human peptide deformylase” (Bioorg Med Chem Lett, 2011).
